SMILES strings stand for the structures. The entries are a selection whose mix differs from that of the whole data set. Entries with a potency or affinity are not part of this list. Active and inactive are the calls of the source.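 Rule for the calls: active = compounds whose percent cytotoxicity in the single-dose primary screen, scaled between solvent and toxic-drug controls, exceeds 50; inactive = the rest.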

The results in this text go back to PubChem BioAssay AID431 (Sanford-Burnham Center for Chemical Genomics, 2006).

This assay in a line: viability loss of HPDE-C7K cells – cell-based, fluorescence, HTS, primary screen (AID 431).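 Note: 0% = DMSO solvent wells and 100% = doxorubicin-treated wells.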 The settings on record: HPDE-C7K KRASV12 cells, Alamar Blue viability, 48 h; at 10 µM; active compounds read high. (In general: Alamar Blue is a resazurin reagent that responds to reducing activity.)
Take `COc1ccccc1OP(C)(=O)Nc1ccc(C)cc1` (stereo unspecified): the cytotoxicity was inactive: -3.9%.
